Experimental data as given in paper PMC3978654, “Surface plasmon resonance using the catalytic domain of soluble guanylate cyclase allows the detection of enzyme activators^” (Bioorganic & Medicinal Chemistry Letters, 2014).

Target: T1, soluble guanylate cyclase α1β1 (sGC) (Homo sapiens, UniProt Q02108+Q02153)
T1 construct: gene GUCY1B1; α1β1 catalytic domain (sGCcat); with sGC α1 subunit (GUCY1A1)
T1 sequence (Q02153 408-619 limits assumed): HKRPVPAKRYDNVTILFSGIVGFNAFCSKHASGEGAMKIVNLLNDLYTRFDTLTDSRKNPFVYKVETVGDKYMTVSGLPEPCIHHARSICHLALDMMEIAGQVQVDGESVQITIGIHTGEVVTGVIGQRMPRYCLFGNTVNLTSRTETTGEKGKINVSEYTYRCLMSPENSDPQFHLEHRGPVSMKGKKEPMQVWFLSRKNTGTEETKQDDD
T1 sequence (Q02108 467-690): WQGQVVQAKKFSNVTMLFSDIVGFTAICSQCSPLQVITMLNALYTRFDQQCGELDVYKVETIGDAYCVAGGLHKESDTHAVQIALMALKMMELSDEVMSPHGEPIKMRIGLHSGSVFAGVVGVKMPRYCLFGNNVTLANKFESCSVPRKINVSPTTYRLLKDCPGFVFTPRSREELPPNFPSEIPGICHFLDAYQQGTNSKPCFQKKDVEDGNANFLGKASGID
Test: SPR (Biacore T200), concentration series
Assay type: binding

Nc1ncnc2c1ncn2[C@@H]1O[C@H](COP(=O)(O)OP(=O)(O)OP(=O)(O)O)[C@@H](O)[C@H]1O [ATP]
Kd: 849 µM
